Molecular target: T1, carcinoembryonic antigen (CEA) (UniProt P06731 35-685, limits assumed, 125I label in the phage-lift and cell binding assays; unlabeled soluble CEA in the blot overlay)
T1 construct: also called soluble CEA; 125I labeled CEA
T1 sequence (looked up): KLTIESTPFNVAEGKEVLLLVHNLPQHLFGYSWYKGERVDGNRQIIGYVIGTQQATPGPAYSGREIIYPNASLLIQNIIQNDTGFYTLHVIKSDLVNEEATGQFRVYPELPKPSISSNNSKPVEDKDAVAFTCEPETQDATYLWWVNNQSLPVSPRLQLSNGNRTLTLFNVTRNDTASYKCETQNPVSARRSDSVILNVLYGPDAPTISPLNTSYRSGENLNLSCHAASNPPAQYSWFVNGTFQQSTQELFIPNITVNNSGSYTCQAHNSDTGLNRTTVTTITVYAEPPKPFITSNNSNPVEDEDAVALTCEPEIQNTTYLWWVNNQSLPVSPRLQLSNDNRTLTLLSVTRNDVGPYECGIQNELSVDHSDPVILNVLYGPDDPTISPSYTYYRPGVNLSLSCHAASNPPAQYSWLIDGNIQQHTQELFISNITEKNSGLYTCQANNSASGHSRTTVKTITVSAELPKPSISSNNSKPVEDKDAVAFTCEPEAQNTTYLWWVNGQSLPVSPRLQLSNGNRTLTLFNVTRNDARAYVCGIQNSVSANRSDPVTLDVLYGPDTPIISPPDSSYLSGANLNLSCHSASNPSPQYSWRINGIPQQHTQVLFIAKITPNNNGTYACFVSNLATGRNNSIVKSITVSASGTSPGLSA
Assay: blot overlay: SDS/PAGE, PVDF membrane exposed to soluble CEA, then anti-CEA antibody
Description: FIG. 4 is a Western blot of rat hnRNP M4 protein expressed in E coli showing CEA binding. Rat cDNA corresponding to hnRNP M4 ORF was placed into a prokaryotic expression vector pGEX3T-4 allowing production of a GST-hnRNP M4 fusion protein. The Kupffer cell lysate and pGEX-4T-3/hnRNP M4 fusion proteins (2 clones) were subjected to SDS/PAGE and transferred into the PVDF membrane. This membrane was exposed to the soluble 1 μM CEA followed by the anti-CEA antibody. […] Line 4 corresponds to a negative control that is a pGEX3T-4 vector without the hnRNP M4 cDNA.
To further substantiate this finding and to estimate the molecular mass of the encoded protein, the cDNA corresponding to hnRNP M4 ORF was placed into a prokaryotic expression pGEX system allowing production of a GST-hnRNP M4 fusion protein. A series of pGEX vectors were designed for inducible, high level intracellular expression of the cDNA as a fusion protein with Schistosoma japonicum GST protein (Amersham Pharmacia Biotech, Piscataway, N.J.). The hnRNP M4 cDNA was inserted into pGEX-4T-3 vector to maintain the proper reading frame. The fusion protein was obtained as described below. The Kupffer cell lysate and pGEX-4T-3/hnRNP M4 fusion proteins (2 clones) were subjected to SDS/PAGE and transferred to a PVDF membrane (FIG. 4). […] A single 80 kD band was determined in Kupffer cells and in the fusion proteins. […]

B1: GST from pGEX-4T-3 vector without the hnRNP M4 cDNA (negative control) (other, Schistosoma japonicum, UniProt P08515 1-218, looked up)
chain: MSPILGYWKIKGLVQPTRLLLEYLEEKYEEHLYERDEGDKWRNKKFELGLEFPNLPYYIDGDVKLTQSMAIIRYIADKHNMLGGCPKERAEISMLEGAVLDIRYGVSRIAYSKDFETLKVDFLSKLPEMLKMFEDRLCHKTYLNGDHVTHPDFMLYDALDVVLYMDPMCLDAFPKLVCFKKRIEAIPQIDKYLKSSKYIAWPLQGWQATFGGGDHPPK
notes: also called empty vector; vector alone
Question: Does B1 bind?
Answer: no binding (tested: 1 µg/ml CEA)
